Patent publication US20250282736A1

Protein sequences, listed by entry. Tags and fused reporters are not part of them.
UniProt O75469, whole entry: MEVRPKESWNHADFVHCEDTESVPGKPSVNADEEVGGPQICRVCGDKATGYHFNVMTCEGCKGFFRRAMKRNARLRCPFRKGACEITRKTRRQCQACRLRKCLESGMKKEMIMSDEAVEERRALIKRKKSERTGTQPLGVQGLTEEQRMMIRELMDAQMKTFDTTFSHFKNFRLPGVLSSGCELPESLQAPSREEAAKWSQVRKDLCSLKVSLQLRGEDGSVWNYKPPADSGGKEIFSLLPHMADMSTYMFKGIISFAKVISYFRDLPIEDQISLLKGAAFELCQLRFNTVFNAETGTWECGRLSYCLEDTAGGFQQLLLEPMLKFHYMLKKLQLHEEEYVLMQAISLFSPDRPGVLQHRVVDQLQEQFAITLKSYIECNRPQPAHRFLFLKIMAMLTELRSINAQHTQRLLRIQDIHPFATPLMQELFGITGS

Columns and labels:
hPXR [1] = biological target: T1, hPXR (Homo sapiens (Human), UniProt O75469); assay: cell-based hPXR agonistic assay; conditions: for Agonist (% activation at 10 μM): rifampicin at 10 μM as 100% activation, DMSO (0.3%) as 0%; for EC50: read-out: Agonist (EC50/μM), cell-based hPXR agonistic assay
hPXR [2] = biological target: T1, hPXR; assay: hPXR binding assay; conditions: read-out: Binding (IC50/μM)
hPXR [3] = biological target: T1, hPXR; assay: cell-based hPXR antagonistic assay; conditions: read-out: Antagonist (IC50/μM); cell-based hPXR antagonistic assay with rifampicin (5 μM)
hPXR [4] = biological target: T1, hPXR; assay: cell-based hPXR inverse agonistic assay; conditions: read-out: Inverse agonist (IC50/μM)

Row | Compound | Agonist (% activation at 10 μM) (hPXR [1]) | EC50 (hPXR [1]) [µM] | IC50 (hPXR [2]) [µM] | IC50 (hPXR [3]) [µM] | IC50 (hPXR [4]) [µM]
1 | CCC(C)Oc1ccc(C(C)(C)C)cc1C(=O)Nc1nnn(-c2cc(OC)ccc2OC)c1C (stereo not drawn) | (58 ± 3)% | 0.0094 | 0.03 | 12 | > 30
2 | CCCC(CC)Oc1ccc(C(C)(C)C)cc1C(=O)Nc1nnn(-c2cc(OC)ccc2OC)c1C (stereo not drawn) | (54 ± 11)% | 0.0014 | 0.0038 | 4.49 | > 30
3 | COc1ccc(OC)c(-n2nnc(C(=O)Nc3cc(OCCOCCOCCOCCNC(=O)CCC4=[N+]5C(=Cc6c(C)cc(C)n6[B-]5(F)F)C=C4)cc(C(C)(C)C)c3)c2C)c1 | – | > 30 | > 30 | 0.7 | > 30
4 | COc1ccc(OC)c(-n2nnc(C(=O)Nc3cc(C(C)(C)C)ccc3OCC(=O)O)c2C)c1 | (81 ± 9)% | 10.7 | – | > 30 | > 30
